Counter-ions that a name gives are not always drawn.
target: human μ-subtype opioid receptor (hMOR) (Homo sapiens (Human), UniProt P35372); experiment: MOR cAMP agonist activity test; format: cell-based; conditions: maximum effect of enkephalin DAMGO was 100%
Experimental: Test 1: MOR cAMP Agonist Activity Test
1.1 Experimental Purpose: To test the cAMP agonist activity of the compounds of the present disclosure on the human μ-subtype opioid receptor (hMOR).
a. Compound samples were dissolved in DMSO to a storage concentration of 10 mM.
b. A series of diluted samples were formulated on a 384-well LDV plate. A total of 11 concentration points were obtained by 3.162-fold gradient dilution.
c. The series of diluted samples were transferred to an experimental plate (Corning-3824) by using an Echo machine, wherein 30 nL was transferred corresponding to each well.
The experiment was performed using a cAMP detection kit from Cisbio (Cisbio #62AM4PEJ).
a. Assay buffer and stimulation buffer (STB) required for the experiment were formulated.
Stimulation Buffer: formulated with the assay buffer, containing 5 μM NKH477 (CAS: 138605-00-2) and 200 μM IBMX (3-isobutyl-1-methylxanthine)
b. […] The number of cells in the well was 10,000 cells/well.
c. The experimental plate was placed in a 37° C. constant-temperature incubator for incubation. The incubation was performed for 40 minutes.
d. A cAMP standard concentration curve was prepared. The first concentration point was at 2848 nM, and a total of sixteen detection concentrations were obtained by 4-fold gradient dilution. There were three replicates for each concentration point.
e. The cAMP detection kit from Cisbio was provided therein with a d2-labeled cAMP reagent (d2 reagent) and an Eu-labeled cAMP antibody reagent (Crypate reagent). The above two reagents were formulated according to the kit instructions, and then added to the sample experimental plate and to the cAMP standard concentration experimental plate, respectively. It was necessary to add 5 μL of the d2 reagent and then 5 μL of the Cryptate reagent to each well.
f. After the experimental plates were left at room temperature for 60 minutes, the experimental plates were read on the Envision.

Point of comparison: `Fc1ccc([C@]2(CCNCc3cccs3)CCO[C@]3(CCOC3)C2)cc1` [(+)-14], Emax 80.6%. Against it:
- Fc1ccc([C@]2(CCNCc3scc4c3CCC4)CCO[C@]3(CCOC3)C2)cc1 [Formate Salt of (+)-4] — higher, 97%
- Fc1ccc([C@]2(CCNCc3scc4c3COC4)CCO[C@]3(CCOC3)C2)cc1 [Hydrochloride Salt of (+)-12] — higher, 83%
